The test addresses T1, Human DPP IV (Homo sapiens, UniProt P27487).
T1 construct: gene DPP4
The test can be described thus: Gly-Pro-MCA fluorescence hydrolysis inhibition; Ki by Cheng-Prusoff. The settings on record: […] Gly-Pro-MCA, […] sodium phosphate pH […] EDTA, […] Tween […] K, […] min; competitive.

Protein sequences, listed by entry. Tags and fused reporters are not part of them. Residues count along the entry.
UniProt P27487, 39-766: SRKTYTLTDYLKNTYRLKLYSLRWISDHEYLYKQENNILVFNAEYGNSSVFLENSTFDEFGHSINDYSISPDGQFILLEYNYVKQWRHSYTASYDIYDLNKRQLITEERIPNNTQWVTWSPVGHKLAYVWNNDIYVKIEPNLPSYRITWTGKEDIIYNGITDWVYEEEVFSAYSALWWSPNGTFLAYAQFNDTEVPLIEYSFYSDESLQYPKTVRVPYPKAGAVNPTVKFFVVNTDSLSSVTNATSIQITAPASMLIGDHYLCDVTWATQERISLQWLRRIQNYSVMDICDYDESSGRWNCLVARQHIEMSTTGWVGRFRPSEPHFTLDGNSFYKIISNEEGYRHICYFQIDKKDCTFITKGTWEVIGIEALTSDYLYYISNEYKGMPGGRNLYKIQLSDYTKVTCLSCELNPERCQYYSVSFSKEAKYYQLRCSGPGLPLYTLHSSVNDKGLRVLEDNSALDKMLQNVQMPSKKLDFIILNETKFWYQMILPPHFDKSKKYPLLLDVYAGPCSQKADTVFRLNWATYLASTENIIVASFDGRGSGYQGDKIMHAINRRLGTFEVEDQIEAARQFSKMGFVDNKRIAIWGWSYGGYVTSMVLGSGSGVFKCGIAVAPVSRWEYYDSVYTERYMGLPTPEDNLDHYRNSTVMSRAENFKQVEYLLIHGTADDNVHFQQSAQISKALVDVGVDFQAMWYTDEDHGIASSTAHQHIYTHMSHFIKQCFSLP

With `CC[C@H](C)[C@H](N)C(=O)N1CCC[C@H]1C(=O)N[C@H](C(=O)O)[C@@H](C)CC` [diprotin A], the Ki came to 4.01 ± 0.3 µM.

The Ki is the dissociation constant of the complex between target and ligand, obtained from inhibition or displacement. Read a high Ki as weaker binding.

The record behind these values is paper PMC5807507, “Crystal structures of a bacterial dipeptidyl peptidase IV reveal a novel substrate recognition mechanism distinct from that of mammalian orthologues” (Scientific Reports, 2018).
